2 molecules from ChEMBL document CHEMBL5614391, “GPX4 allosteric activators inhibit ferroptosis and exert myocardial protection in doxorubicin-induced myocardial injury mouse model” (Eur J Med Chem, 2024) can be followed below.

Activity calls are given as the source filed them. The calls are words filed in the database; no cut-off is given here.

The test system of assay [1] is HT-1080. The experiment in a line: Reversal of H2O2 induced cell death in human HT-1080 cells assessed as cell viability at 40 uM preincubated for 1 hr followed by H2O2 addition and measured after 24 hrs by CCK8 method. It is filed as functional, cell-based. Particulars: time 25.0 hrs.
In assay [2] the test system is HT-1080. The experiment in a line: Reversal of erastin induced cell death in human HT-1080 cells assessed as cell viability at 40 uM preincubated for 1 hr followed by erastin addition and measured after 24 hrs by CCK8 method. It is filed as functional, cell-based. The following applies: time 25.0 hrs.
Assay [3] has as its system HT-1080. The assay is described as follows: Reversal of staurosporine induced cell death in human HT-1080 cells assessed as cell viability at 40 uM preincubated for 1 hr followed by staurosporine addition and measured after 24 hrs by CCK8 method. It is filed as functional, cell-based. Particulars: time 25.0 hrs.
In assay [4] the test system is HT-1080. The assay is described as follows: Reversal of rapamycin induced cell death in human HT-1080 cells assessed as cell viability at 40 uM preincubated for 1 hr followed by rapamycin addition and measured after 24 hrs by CCK8 method. It is filed as functional, cell-based. The following applies: time 25.0 hrs.
The subject of assay [5] is HT-1080. The experiment in a line: Protection against erastin-induced ferroptosis in human HT-1080 cells assessed as reduction in lipid peroxides accumulation incubated for 2 hrs by C11-BODIPSY (581/591) probe based flow cytometry analysis. It is filed as functional, cell-based.
Assay [6] relates to Mus musculus. The experiment in a line: Protection against doxorubicin induced myocardial injury in mouse assessed as reduction in nuclear lysis at 10 to 25 mg/kg, ip administered for 24 hrs followed by doxorubicin addition and measured after 96 hrs. It is filed as functional, organism-based. The following applies: dose 10-25 mg/kg, time 120.0 hrs.
Assay [7] deals with Mus musculus. The assay is described as follows: Protection against doxorubicin induced myocardial injury in mouse assessed as reduction in nuclear pyknosis at 10 to 25 mg/kg, ip administered for 24 hrs followed by doxorubicin addition and measured after 96 hrs by H and E staining based assay. Particulars: dose 10-25 mg/kg, time 120.0 hrs. It is filed as functional, organism-based.

Assay [8] relates to Mus musculus. The experiment in a line: Protection against doxorubicin induced myocardial injury in mouse assessed as reduction in inflammatory cell infiltration at 10 to 25 mg/kg, ip administered for 24 hrs followed by doxorubicin addition and measured after 96 hrs by H and E staining based assay. It is filed as functional, organism-based. The following applies: dose 10-25 mg/kg, time 120.0 hrs.

The test system of assay [9] is Mus musculus. The assay is described as follows: Protection against doxorubicin induced myocardial injury in mouse assessed as appearance of tightly arranged myocardial cells at 10 to 25 mg/kg, ip administered for 24 hrs followed by doxorubicin addition and measured after 96 hrs by H and E staining based assay. It is filed as functional, organism-based. Particulars: dose 10-25 mg/kg, time 120.0 hrs.

Assay [10] has as its system Mus musculus. The experiment in a line: Protection against doxorubicin induced myocardial injury in mouse assessed as appearance of rich and uniform cytoplasm at 10 to 25 mg/kg, ip administered for 24 hrs followed by doxorubicin addition and measured after 96 hrs by H and E staining based assay. Particulars: dose 10-25 mg/kg, time 120.0 hrs. It is filed as functional, organism-based.

The test system of assay [11] is Mus musculus. The assay is described as follows: Protection against doxorubicin induced myocardial injury in mouse assessed as reduction in serum MDA level at 10 to 25 mg/kg, ip administered for 24 hrs followed by doxorubicin addition and measured after 96 hrs. It is filed as functional, organism-based. The following applies: dose 10-25 mg/kg, time 120.0 hrs.
Assay [12] deals with Mus musculus. The assay is described as follows: Protection against doxorubicin induced myocardial injury in mouse assessed as appearance of uniformly arranged myocardial cells at 10 to 25 mg/kg, ip administered for 24 hrs followed by doxorubicin addition and measured after 96 hrs by H and E staining based assay. It is filed as functional, organism-based. Particulars: dose 10-25 mg/kg, time 120.0 hrs.

The subject of assay [13] is Mus musculus. The experiment in a line: Protection against doxorubicin induced myocardial injury in mouse assessed as appearance of myocardial cells with clear horizontal lines at 10 to 25 mg/kg, ip administered for 24 hrs followed by doxorubicin addition and measured after 96 hrs by H and E staining based assay. It is filed as functional, organism-based. Particulars: dose 10-25 mg/kg, time 120.0 hrs.

Assay [14] concerns Mus musculus. The experiment in a line: Protection against doxorubicin induced myocardial injury in mouse assessed as appearance of neatly arranged myocardial fibers at 10 to 25 mg/kg, ip administered for 24 hrs followed by doxorubicin addition and measured after 96 hrs by H and E staining based assay. The following applies: dose 10-25 mg/kg, time 120.0 hrs. It is filed as functional, organism-based.

Assay [15] has as its system Mus musculus. The experiment in a line: Protection against doxorubicin induced myocardial injury in mouse assessed as reduction in myocardial AST level at 10 to 25 mg/kg, ip administered for 24 hrs followed by doxorubicin addition and measured after 96 hrs. It is filed as functional, organism-based. Particulars: dose 10-25 mg/kg, time 120.0 hrs.
Assay [16] deals with Mus musculus. The experiment in a line: Protection against doxorubicin induced myocardial injury in mouse assessed as appearance of normal interstitium at 10 to 25 mg/kg, ip administered for 24 hrs followed by doxorubicin addition and measured after 96 hrs by H and E staining based assay. It is filed as functional, organism-based. Particulars: dose 10-25 mg/kg, time 120.0 hrs.

Assay [17] relates to Mus musculus. The assay is described as follows: Protection against doxorubicin induced myocardial injury in mouse assessed as absence of myocardial fibrosis at 10 to 25 mg/kg, ip administered for 24 hrs followed by doxorubicin addition and measured after 96 hrs by H and E staining based assay. It is filed as functional, organism-based. The following applies: dose 10-25 mg/kg, time 120.0 hrs.

For assay [18], the system named is Mus musculus. The experiment in a line: Protection against doxorubicin induced myocardial injury in mouse assessed as reduction in myocardial MDA level at 10 to 25 mg/kg, ip administered for 24 hrs followed by doxorubicin addition and measured after 96 hrs. It is filed as functional, organism-based. Particulars: dose 10-25 mg/kg, time 120.0 hrs.
Assay [19] has as its system Mus musculus. The experiment in a line: Protection against doxorubicin induced myocardial injury in mouse assessed as reduction in vacuolar degeneration at 10 to 25 mg/kg, ip administered for 24 hrs followed by doxorubicin addition and measured after 96 hrs by H and E staining based assay. The following applies: dose 10-25 mg/kg, time 120.0 hrs. It is filed as functional, organism-based.

Assay [20] concerns Mus musculus. The assay is described as follows: Protection against doxorubicin induced myocardial injury in mouse assessed as appearance of uniform myocardial cell size at 10 to 25 mg/kg, ip administered for 24 hrs followed by doxorubicin addition and measured after 96 hrs by H and E staining based assay. It is filed as functional, organism-based. The following applies: dose 10-25 mg/kg, time 120.0 hrs.

Assay [21] deals with Mus musculus. The experiment in a line: Protection against doxorubicin induced myocardial injury in mouse assessed as reduction in loss of myocardial cells at 10 to 25 mg/kg, ip administered for 24 hrs followed by doxorubicin addition and measured after 96 hrs by H and E staining based assay. It is filed as functional, organism-based. The following applies: dose 10-25 mg/kg, time 120.0 hrs.

Assay [22] concerns Mus musculus. The assay is described as follows: Protection against doxorubicin induced myocardial injury in mouse assessed as appearance of evenly arranged cells at 10 to 25 mg/kg, ip administered for 24 hrs followed by doxorubicin addition and measured after 96 hrs by H and E staining based assay. It is filed as functional, organism-based. The following applies: dose 10-25 mg/kg, time 120.0 hrs.

For assay [23], the system named is Mus musculus. The experiment in a line: Protection against doxorubicin induced myocardial injury in mouse assessed as appearance of neatly arranged myocardial cells at 10 to 25 mg/kg, ip administered for 24 hrs followed by doxorubicin addition and measured after 96 hrs by H and E staining based assay. It is filed as functional, organism-based. Particulars: dose 10-25 mg/kg, time 120.0 hrs.

In the case of `COc1ccc(NCc2cccn2-c2nnc(N3CCN(C)CC3)s2)cc1OC`, the result in the assay with HT-1080 [1], in the assay on HT-1080 [3] and in the assay with HT-1080 [4] was inactive. Moreover, the outcome in the assay on HT-1080 [2] and with HT-1080 [5] was Active.
Take `COc1ccc(NCc2cccn2-c2nnc(N3CCN(C)CC3)s2)c(OC)c1`: the outcome in the assay with Mus musculus [6], with Mus musculus [7], in the assay with Mus musculus [8], in the assay with Mus musculus [9], in the assay on Mus musculus [10] and with Mus musculus [11] was Active. The outcome with Mus musculus [12], in the assay on Mus musculus [13], in the assay with Mus musculus [14], with HT-1080 [5], in the assay on Mus musculus [15] and in the assay on Mus musculus [16] was Active. Further, the result with Mus musculus [17], with Mus musculus [18], with Mus musculus [19], with Mus musculus [20], in the assay on Mus musculus [21] and in the assay on Mus musculus [22] was Active. The result in the assay with Mus musculus [23] was Active.
